Reference: patent US12162888B2, “Carboxamides as ubiquitin-specific protease inhibitors” (Valo Early Discovery, Inc., priority 2018, dated 2024)

Molecular target: T1, USP28 (His-tagged USP28-FL-mammalian) (Homo sapiens, UniProt Q96RU2)
T1 construct: Expression of USP28 (1-1077)-TEV-6*His (pTT5 vector) was carried out in Expi293f cells; made in house; host or cells: Expi293F cells (pTT5 vector)
T1 sequence (Q96RU2 1-1077): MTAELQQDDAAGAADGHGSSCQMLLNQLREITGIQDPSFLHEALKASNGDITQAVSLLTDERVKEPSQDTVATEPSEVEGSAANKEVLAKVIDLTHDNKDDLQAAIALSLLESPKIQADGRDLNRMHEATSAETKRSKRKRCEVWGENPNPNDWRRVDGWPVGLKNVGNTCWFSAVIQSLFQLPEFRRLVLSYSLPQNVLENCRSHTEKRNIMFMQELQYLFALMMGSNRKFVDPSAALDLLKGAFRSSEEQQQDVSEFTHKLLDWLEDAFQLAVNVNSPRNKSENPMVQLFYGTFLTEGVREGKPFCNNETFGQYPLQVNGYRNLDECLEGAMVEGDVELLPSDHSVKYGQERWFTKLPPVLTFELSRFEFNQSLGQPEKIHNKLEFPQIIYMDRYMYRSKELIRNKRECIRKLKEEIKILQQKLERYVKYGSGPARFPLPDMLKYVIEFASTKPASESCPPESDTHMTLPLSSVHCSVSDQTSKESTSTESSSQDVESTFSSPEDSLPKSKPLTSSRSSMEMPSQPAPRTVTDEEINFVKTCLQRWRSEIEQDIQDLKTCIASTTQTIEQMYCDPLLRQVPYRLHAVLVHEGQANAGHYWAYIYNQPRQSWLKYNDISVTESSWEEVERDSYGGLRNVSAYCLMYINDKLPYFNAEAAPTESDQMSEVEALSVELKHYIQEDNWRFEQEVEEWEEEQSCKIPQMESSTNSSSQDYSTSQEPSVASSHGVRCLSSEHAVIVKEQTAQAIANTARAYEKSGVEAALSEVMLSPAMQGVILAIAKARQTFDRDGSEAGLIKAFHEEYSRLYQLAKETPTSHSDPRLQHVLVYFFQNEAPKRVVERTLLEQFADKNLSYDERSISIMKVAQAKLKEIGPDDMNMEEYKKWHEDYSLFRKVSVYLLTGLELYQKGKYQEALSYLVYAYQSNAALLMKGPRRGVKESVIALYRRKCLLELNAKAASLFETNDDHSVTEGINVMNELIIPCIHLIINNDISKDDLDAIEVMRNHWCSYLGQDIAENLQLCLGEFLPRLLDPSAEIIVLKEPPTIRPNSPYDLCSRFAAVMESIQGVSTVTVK
Experiment: Ubiquitin-Rhodamine 110 Assay for USP28 Activity, Example A-1(a)
Conditions: biochemical IC50 range
Experimental: Example A-1(a): Biochemical Assay: Ubiquitin-Rhodamine 110 Assay for USP28 Activity
The assay was performed in a final volume of 9 μL in assay buffer containing 20 mM Tris-HCl (pH 8.0, (1M Tris-HCl, pH 8.0 solution; Corning 46-031-CM)), 3 mM BME (2-Mercaptoethanol; Sigma 63689-25ML-F), 0.03% BGG (0.22 μM filtered, Sigma, G7516-25G), and 0.01% Triton X-100 (Sigma, T9284-10L). Nanoliter quantities of 10-point, 3-fold serial dilution in DMSO was pre-dispensed into 1536 assay plates (Corning, #3724BC) for a final test concentration of 25 μM to 1.3 nM, top to lowest dose, respectively. Enzyme USP28, construct His-tagged USP28-FL-mammalian, (protein expression and purification procedure described below). […] Fluorescence was read on the Envision (Excitation at 485 nm and Emission at 535 nm; Perkin Elmer) or on the PheraSTAR (Excitation at 485 nm and Emission at 535 nm; BMG Labtech). […]
For assay formats Example A-1(a), A-1(b), and A-2, data were reported as percent inhibition compared with control wells based on the following equation: % inh=1−((FLU−AveLow)/(AveHigh−AveLow)) where FLU=measured Fluorescence, AveLow=average Fluorescence of no enzyme control (n=16), and AveHighh=average Fluorescence of DMSO control (n=16). IC50 values were determined by curve fitting of the standard 4 parameter logistic fitting algorithm included in the Activity Base software package: IDBS XE Designer Model 205. […]

3-amino-N-[(3R)-7-[(3S,4R)-3-(methoxymethyl)-4-[(^2H[…])methylamino]pyrrolidin-1-yl]-3,4-dihydro-2H-1-benzopyran-3-yl]-6-methylthieno[2,3-b]pyridine-2-carboxamide [Example 670]
IC50: 1 to 50 nM

3-amino-N-[(3R)-7-[(3R,4S)-3-(methoxymethyl)-4-[(^2H[…])methylamino]pyrrolidin-1-yl]-3,4-dihydro-2H-1-benzopyran-3-yl]-6-methylthieno[2,3-b]pyridine-2-carboxamide [Example 671]
IC50: 1 to 50 nM
